Results from patent US4550116A, “Piperidine derivatives” (Fordonal, S.A., priority 1983, dated 1985).

Tested on: histamine H1-receptor
Assay: Antihistamine activity in anaesthetized rats (vasodepressor responses to histamine)
Assay type: in vivo, rat
Conditions: 0.3 mg/kg i.v.; pentobarbitone anaesthetized rats
Experimental: B. Antihistamine activity in anaesthetized rats
Test compounds were administered to pentobarbitone anaesthetized rats at 0.3 mg/kg i.v. following stable, submaximal, vasodepressor responses to histamine.

SMILES: CC(C)(C)c1ccc(C(O)CCCN2CCC(C(O)(c3ccccc3)c3ccccc3)CC2)cc1 (stereo not drawn) [TERFENADINE, α-[4-(1,1-dimethylethyl)phenyl]-4-(hydroxydiphenylmethyl)-1-piperidinebutanol, reference compound]
- TEST B ANT[…] RAT (inhibition of the histamine response): ++ (25-50%)
